Antibody variant affinities, Ab-14 heavy chain, assay 1

From the AlphaSeq antibody data of Engelhart et al. 2022 (doi:10.1038/s41597-022-01779-4), copy in the FLAb collection.

Antigen: PDVDLGDISGINAS, a 14-residue peptide of the SARS-CoV-2 spike HR2 region.

Parent scFv Ab-14: VH joined to VL by three GGGGS repeats. Changes lie in the heavy chain CDRs alone.
VH: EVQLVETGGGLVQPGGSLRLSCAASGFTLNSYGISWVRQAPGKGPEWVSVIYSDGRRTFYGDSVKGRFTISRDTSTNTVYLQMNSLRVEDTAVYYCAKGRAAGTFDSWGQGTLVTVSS
VL: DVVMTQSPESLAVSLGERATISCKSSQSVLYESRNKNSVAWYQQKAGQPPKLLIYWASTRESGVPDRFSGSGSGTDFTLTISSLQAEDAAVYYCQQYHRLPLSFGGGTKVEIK

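The starting antibody came from a phage panning campaign against this peptide. The library (AAYL49) carries one to three amino acid substitutions per variant, with no insertions or deletions. Affinity was read by AlphaSeq, a pooled yeast mating assay with surface-displayed partners. Binding brings cells together so that they mate, and sequencing counts the barcode pairs among the diploids. The ratio of observed to expected reads was calibrated, replicate by replicate, on BCL2-family standards whose Kd was known from biolayer interferometry. The assay was run in three technical replicates.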

The parent's heavy chain CDRs are GFTLNSYGIS, VIYSDGRRTFYGDSVK, GRAAGTFDS; each variant's own CDRs replace them letter for letter. This list gathers variants with a substitution at R56 (VH, numbered from residue 1). Affinities are written as log10 Kd with Kd in nM; a lower number is a better binder. The mean shown is taken over the replicates in which the pair was detected. Where no diploid with the target was found in any replicate, the entry reads "no signal": below detection, most likely a poor binder, though not proof of it. Nonspecific signal, from three strains lacking the peptide, appeared in 15% of pairings of library AAYL49, centred on 4.06 (5% of these signals below 2.83); values are not corrected for it. In this assay the parent's reference entry averaged 0.65; its copy inside this library read 4.11 (one replicate of three).

Variant GETLNSYGIS / VIYSDGWRTFYGDDVK / GRAAGTFDS gave 2.09 (3 of 3 replicates). Variant GFTLNWYGIS / VIYSDGMRTFYGDSVK / GRAAGTFDP showed no signal (0 of 3 replicates). Variant GFTLNSYGIS / VIYSDGGRTFYGDSVK / IRAMGTFDS showed 4.10 (1 of 3 replicates). Variant GFTLNSYGIS / DAYSDGDRTFYGDSVK / GRAAGTFDS showed 5.70 (1 of 3 replicates). With GFTLNSYGIS / VLYSDGMRTPYGDSVK / GRAAGTFDS the result was 4.36 (1 of 3 replicates). Variant GFTLNAYGIS / VIYSDGGRNFYGDSVK / GRAAGTFDS gave 4.85 (1 of 3 replicates). Variant GFTLNGYGIS / VDYSDGSRTFYGDSVK / GRAAGTFDS showed no signal (0 of 3 replicates). For GITLNSYGIS / VIYSDGTRTFYGDSVK / RRAAGTFDS, the assay gave 3.90 (1 of 3 replicates). Variant GFQLNSRGIS / VIYSDGPRTFYGDSVK / GRAAGTFDS showed no signal (0 of 3 replicates).

Variant GFTLFSYGIS / VIYSDGERTFYGDSVK / GWAAGTFDS gave no signal (0 of 3 replicates). For GFTLNSYGIS / VIYSDGNRTFYGLSVK / GRAAGTCDS, the assay gave no signal (0 of 3 replicates). Variant GYTLNSYGIS / VIYSDGGRTFYGDSVK / GRAAGWFDS showed no signal (0 of 3 replicates). Variant GFTPNSYGIS / VIYSDGARTFYGDSVK / GRAAGTVDS gave 3.12 (1 of 3 replicates). With GFTLNSYGIS / VIGSDGLRTFYGDSVK / GRAAGTFDS the result was no signal (0 of 3 replicates). For GFTLNSYGIS / VIYSDGPRCFYGDSVK / GDAAGTFDS, the assay gave 5.29 (2 of 3 replicates). For GFTLNSYGWS / VIYSDGERTFYGDSVK / SRAAGTFDS, the assay gave no signal (0 of 3 replicates). Variant GFTLNSYWIS / VIYSDGPRTFYGDSVI / GRAAGTFDS gave no signal (0 of 3 replicates). For GFTLNSYGES / VIYSDGGRTFYGDSVK / GQAAGTFDS, the assay gave no signal (0 of 3 replicates).

Variant GFTLNSYKIS / VIYSDGTRHFYGDSVK / GRAAGTFDS gave no signal (0 of 3 replicates). Variant GFQLNSYGIL / VIYSDGPRTFYGDSVK / GRAAGTFDS showed no signal (0 of 3 replicates). Variant GFTLNSYGIS / VIYSYGYRTTYGDSVK / GRAAGTFDS gave no signal (0 of 3 replicates). Variant GFTLNSAGIV / VIYSDGLRTFYGDSVK / GRAAGTFDS showed no signal (0 of 3 replicates). Variant GFTLNSYGIS / VIYSDGWRTFYGDSVK / GRAAGTFDG showed 2.60 (3 of 3 replicates). With GFWLNSYGIS / VIYSDGMRTFYGDSVG / GRAAGTFDS the result was 4.22 (1 of 3 replicates). Variant GFTLNSYGIS / VFYSDGGRTFYGDSVK / GRAAGTFDS showed no signal (0 of 3 replicates). With GFTLNSYGIS / MIYSDGERTFYGDSVK / IRAAGTFDS the result was 4.23 (2 of 3 replicates). Variant GFTLYSYGIS / VIYSDGVRTFYGDSVK / GRAAGRFDS gave 2.03 (3 of 3 replicates).

Variant GFTLNSYGIS / VQYSDGTRTFYGDSVK / GRYAGTFDS showed 4.43 (1 of 3 replicates). With GFTLNSYGIS / VIYSDGYRTFYADSVK / GRAALTFDS the result was 0.53 (3 of 3 replicates). For GFTLNSYGMS / VIYSDGVRTFYGDSVK / GRAAGTFMS, the assay gave 2.60 (3 of 3 replicates). With GFTLNSYGIS / VIYSDDQNTFYGDSVK / GRAAGTFDS the result was 4.77 (2 of 3 replicates). With GFLLKSYGIS / VIYSDGSRTFYGDSVK / GRAAGTFDS the result was 2.45 (3 of 3 replicates). Variant HFTLNSYGIS / VIYSDGDRTFYGDSIK / GRAAGTFDS showed no signal (0 of 3 replicates). Variant GFTLNSYGIS / VIYSDGFRCFTGDSVK / GRAAGTFDS showed no signal (0 of 3 replicates). For GFTLNSYGIS / VIYSDGGRTFYGDSVK / CRAEGTFDS, the assay gave 3.95 (3 of 3 replicates). With GFTLNSYGIS / VIYSDGVRTFYGMSVK / GRAAGTFDN the result was 4.25 (2 of 3 replicates).

With GFTLNIYGIS / VIYSDGARTFYGDSVK / GQAAGTFDS the result was 1.46 (1 of 3 replicates). With GFTLNSIGIS / VIYSDGQRTFFGDSVK / GRAAGTFDS the result was no signal (0 of 3 replicates). For GFTLNGYGIS / VIYSDGFRTFYEDSVK / GRAAGTFDS, the assay gave 1.95 (3 of 3 replicates). For GFTLNSYGIK / VIYSDGNRTFYTDSVK / GRAAGTFDS, the assay gave 2.23 (3 of 3 replicates). For GFTLTSYGDS / VIYSDGMRTFYGDSVK / GRAAGTFDS, the assay gave no signal (0 of 3 replicates). Variant GFTLNSYGIS / WIYSDGYRTFYGDSVK / GGAAGTFDS gave no signal (0 of 3 replicates). With GFTLNSYGIS / VIYSDGQRTEYGDSVK / GRAAGTFDV the result was no signal (0 of 3 replicates). For GFTLNSYGVS / VIYWDGHRTFYGDSVK / GRAAGTFDS, the assay gave 1.89 (3 of 3 replicates).

The 5 strongest on average among those seen in every replicate, once more:

{"CDR-H1": "GFTLNSYGIS", "CDR-H2": "VIYSDGYRTFYADSVK", "CDR-H3": "GRAALTFDS", "log10 Kd (nM), mean": "0.53", "replicates with signal": "3/3"}
{"CDR-H1": "GFTLNSYGVS", "CDR-H2": "VIYWDGHRTFYGDSVK", "CDR-H3": "GRAAGTFDS", "log10 Kd (nM), mean": "1.89", "replicates with signal": "3/3"}
{"CDR-H1": "GFTLNGYGIS", "CDR-H2": "VIYSDGFRTFYEDSVK", "CDR-H3": "GRAAGTFDS", "log10 Kd (nM), mean": "1.95", "replicates with signal": "3/3"}
{"CDR-H1": "GFTLYSYGIS", "CDR-H2": "VIYSDGVRTFYGDSVK", "CDR-H3": "GRAAGRFDS", "log10 Kd (nM), mean": "2.03", "replicates with signal": "3/3"}
{"CDR-H1": "GETLNSYGIS", "CDR-H2": "VIYSDGWRTFYGDDVK", "CDR-H3": "GRAAGTFDS", "log10 Kd (nM), mean": "2.09", "replicates with signal": "3/3"}